An excerpt weighted towards active compounds, which were near 2.4% of everything screened.
Rango dissoc inh = inhibition of RanGTP-driven Rango-importin beta dissociation | Biochemical FRET Rango-importin beta, RanGTP-induced dissociation | 340,000 tested, 0.071% active | AID 540253 | Potency, µM (top dose mostly 46.1 µM), for inactives: at the highest dose activity change, negative = inhibition; calls by dose curve; note: % of control where 0% means no effect; nearly all actives have a fitted effect of over 45% in size
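Rango FRET biosensor (snurportin-1 IBB flanked by N-terminal EYFP and C-terminal CFP10) at 0.1 uM, with 0.25 uM importin beta in PBS, 1mM DTT, 0.02% Tween-20, 0.1% BSA. 0.6 uM Ran, 2mM GTP and 0.2 uM RCC1 were then added for 45 min at room temperature. Inhibition read as loss of FRET rise.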
Rango complex inh = Rango-importin beta binding inhibition; Q14974; Rango CFP/YFP FRET sensor + importin beta, 45 min; Potency, µM (titrated, usually from 92.2 µM), inactives show at the highest dose inhibition of complex formation; 340,000 tested, 0.031% active; calls by dose curve;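 note: 0% = DMSO wells and 100% = buffer wells lacking importin beta; nearly all actives have a fitted effect of over 15% in size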
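Inhibition scored from the CFP 486 nm/YFP 530 nm FRET ratio 45 min after adding 0.125 microM importin beta to 50 nM Rango biosensor preincubated 5 min with compound (room temperature, PBS with DTT, Tween-20, BSA). No-importin wells as positive control.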
ELG1 repair inh = blocks ELG1-dependent DNA repair in HEK293T cells | Potency, µM (series often up to 46.1 µM), without a hit: at the highest dose activity change, negative = inhibition, hits mostly inhibitors | HEK293T ELG1-luciferase reporter, luminescence, 16 h; DNA damage induced by 5-fluorouridine | 330,000 tested, 2.3% active; note: % is set by controls: 0 for no effect and ±100 for the full control effect; nearly all actives have a fitted effect of over 55% in size
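Reporter activity after DNA damage by 5-fluorouridine is monitored. Compound-treated cells incubate 16 hr at 37 °C, then ONE-Glo is added for 30 min before luminescence reading.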
PKM2 act = increases activity of human pyruvate kinase M2; P14618; Potency, µM (titrated, usually from 57.5 µM), without a hit: at the top dose activation, most hits filed as activators; purified PKM2, Kinase-Glo ATP luminescence, activation; response scale: 0% is enzyme alone, no compound; 260,000 tested, 0.34% active; note: % is set by controls: 0 for no effect and ±100 for the full control effect; nearly all actives have a fitted effect of over 55% in size
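hPK-M2, >95% pure; 0.1 mM ADP / 0.5 mM PEP final; imidazole pH7.2 buffer w/ 7 mM MgCl2, 50 mM KCl; 1 h RT; Kinase-Glo lum. Intermediate enzyme activity for dual inhibitor/activator qHTS.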
PGK inhibitor = blocks T. brucei phosphoglycerate kinase; AID 602233; Potency, µM (doses to about 57.5 µM), for inactives: at the highest dose activity change, negative = inhibition, hits mostly inhibitors; PGK/GAPDH coupled, Kinase-Glo luminescence, 60 min; 380,000 tested, 0.043% active; P07378; note: % is set by controls: 0 for no effect and ±100 for the full control effect; nearly all actives have a fitted effect of over 60% in size
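Luminescent ATP detection (Kinase-Glo Plus) follows a 60-minute room-temperature incubation, with wells lacking PGK as controls. Buffer: 100 mM TEA (pH 7.6), 5 mM MgCl2, 0.01% Tween-20. Coupling enzyme GAPDH (100 nM final) supplies unstable 1,3-BPG in-well.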
Tb PFK inh = inhibitors of T. brucei phosphofructokinase. AID 485367. Potency, µM (doses to about 57.5 µM), without a hit: at the top dose activity, negative = inhibition, hits mostly inhibitors. O15648. T. brucei PFK, ADP-Glo luminescence. 330,000 tested, 0.17% active;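 note: 0% = uninhibited 1x PFK enzyme wells and -100% = no-enzyme wells; nearly all actives have a fitted effect of over 60% in size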
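Compounds were pin-transferred as a titration series up to 57 uM into substrate buffer (0.5 mM F6P, 0.1 mM ATP, pH 8.0), then 1.25 nM PFK was added and reactions ran 45 min before ADP-Glo detection.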
The depositor's hits bear a star; i = inactive; u = inconclusive; x = no result. Unless noted, calls come from the whole dose curve; as a rule, active = well fitted curve in the direction sought with a large enough effect; inconclusive = small, poorly fitted or top-dose-only effect, or another doubt; inactive = no such curve, though single readings can be large; an effect the other way counts as inactive or inconclusive. Potency is the fitted concentration of half-maximal effect.

Letter code: A = Rango dissoc inh; B = Rango complex inh; C = ELG1 repair inh; D = PKM2 act; E = PGK inhibitor; F = Tb PFK inh
CCOC(=O)N1CCN(S(=O)(=O)c2ccc(C)cc2)C1c1ccc(OC)cc1 (stereo not given)
  A: -18% | B: 2% | C: u | D: 4% | E: -8% | F: 1%
CC(C)(CNC(=O)CO/N=C1/C=C2CCC3C(C(O)C[C@@]4(C)C3CC[C@]4(O)C(=O)CO)[C@@]2(C)CC1)C(O)C(=O)O (stereo not given in full)
  A: -9% | B: 2% | C: 19% | D: x | E: i | F: -8%
O=C(CN1CC[n+]2c(-c3cccs3)csc21)c1ccc(Br)cc1
  A: 10% | B: 0% | C: u | D: -18% | E: -10% | F: 7%
O=C(CN1CC[n+]2c(-c3ccccc3)csc21)c1ccc(Br)cc1
  A: -5% | B: 4% | C: 16µM* | D: 0% | E: 5% | F: 0%
CCOc1ccc(NC(=NCc2ccc3c(c2)OCO3)SC2CC(=O)N(c3ccc(OCC)cc3)C2=O)cc1 (stereo not given)
  A: 11% | B: 3% | C: u | D: 7% | E: -7% | F: -7%
CCOc1ccc(N2C(=O)CC(SC(=NC)Nc3ccc4c(c3)OCO4)C2=O)cc1 (stereo not given)
  A: -16% | B: u | C: 26µM* | D: -3% | E: 2% | F: 2%
Cc1cccc(NS(=O)(=O)c2cc(C(=O)N3CCCCCC3)ccc2C)c1
  A: 1% | B: 1% | C: -4% | D: 0% | E: -4% | F: 1%
COc1cccc(/C=C2/CN(C)CC3=C2OC(N)=C(C#N)C3c2cccc(OC)c2)c1 (stereo not given)
  A: 21µM* | B: u | C: u | D: 30% | E: -8% | F: 4%
COc1cccc(C2C(C#N)=C(N)OC(C(C)(C)C)=C2C#N)c1 (stereo not given)
  A: -15% | B: -4% | C: 14% | D: 2% | E: -4% | F: 1%
Cc1cc(C)cc(NC(=O)CSc2oc(-c3cccs3)nc2S(=O)(=O)c2ccccc2)c1
  A: x | B: x | C: x | D: x | E: -9% | F: x
COC(=O)CC1(C(=O)OC)Oc2ccc(Br)cc2C(=O)N1c1cccc(Cl)c1Cl (stereo not given)
  A: -9% | B: 9% | C: u | D: 0% | E: 20% | F: 0%
COC(=O)CC1(C(=O)OC)Oc2ccc(Br)cc2C(=O)N1c1cc(Cl)c(Cl)cc1Cl (stereo not given)
  A: 32% | B: -1% | C: 16µM* | D: -4% | E: 0% | F: 0%
COC(=O)CC1(C(=O)OC)Oc2ccc(Br)cc2C(=O)N1c1ccc(Br)cc1Cl (stereo not given)
  A: -1% | B: 0% | C: 23µM* | D: 7% | E: 1% | F: 3%
CN(C(=O)Nc1ccc(Cl)cc1Cl)[C@H]1c2cc(Br)ccc2OC[C@H]1CO
  A: 14% | B: -1% | C: 21µM* | D: 7% | E: -5% | F: -5%
COc1cccc2c1OC[C@@H](CO)[C@H]2N(C)C(=O)Nc1ccccc1
  A: 6% | B: 3% | C: -2% | D: -2% | E: 22% | F: 0%
CC1CCC(C(C)C)C(OC(=O)Cn2nnc3c(cnn3-c3ccccc3)c2=O)C1 (stereo not given)
  A: -9% | B: 4% | C: 16µM* | D: 0% | E: 0% | F: -2%
O=C(Cn1nnc2c(cnn2-c2ccccc2)c1=O)NCc1cccs1
  A: -3% | B: 4% | C: 0% | D: -2% | E: 0% | F: 2%
Cn1nnnc1SCCCNCc1ccc(-c2ccc(F)c(Cl)c2)o1
  A: x | B: x | C: x | D: x | E: 3% | F: x
CCOC(=O)N1CCC(NC(=O)c2ccc3c(c2)sc2nc(-c4cccc(OC)c4)cn23)CC1
  A: x | B: x | C: 2.9µM* | D: -4% | E: x | F: 2%
CCOC(=O)N1CCC(NC(=O)c2ccc3c(c2)sc2nc(-c4ccccc4)cn23)CC1
  A: -7% | B: -2% | C: 3% | D: 9% | E: -6% | F: 0%

Reprinted at random: three entries already listed.
Letter code: A = Rango dissoc inh; B = Rango complex inh; C = ELG1 repair inh; D = PKM2 act; E = PGK inhibitor; F = Tb PFK inh
CCOC(=O)N1CCC(NC(=O)c2ccc3c(c2)sc2nc(-c4ccccc4)cn23)CC1
  A: -7% | B: -2% | C: 3% | D: 9% | E: -6% | F: 0%
CCOC(=O)N1CCC(NC(=O)c2ccc3c(c2)sc2nc(-c4cccc(OC)c4)cn23)CC1
  A: x | B: x | C: 2.9µM* | D: -4% | E: x | F: 2%
COc1cccc2c1OC[C@@H](CO)[C@H]2N(C)C(=O)Nc1ccccc1
  A: 6% | B: 3% | C: -2% | D: -2% | E: 22% | F: 0%

Additional structures follow:
Letter code: A = Rango dissoc inh; B = Rango complex inh; C = ELG1 repair inh; D = PKM2 act; E = PGK inhibitor; F = Tb PFK inh
CCCCc1ccc(NC(=O)CSc2nc(=O)[nH]c3c2CCCC3)cc1
  A: x | B: x | C: x | D: x | E: -5% | F: x
CCN1/C(=C\C(C)=O)Sc2ccc(OC)cc21
  A: -16% | B: 2% | C: 23µM* | D: 4% | E: 2% | F: 6%
O=C(NCCc1ccccn1)c1cc2ccccc2o1
  A: 32% | B: 8% | C: u | D: -3% | E: 20% | F: 0%
O=C(Nc1cccc(Cl)c1)c1cc(S(=O)(=O)N2CCCc3ccccc32)ccc1F
  A: x | B: x | C: x | D: x | E: i | F: x
CC(=O)N1CCCc2cc(S(=O)(=O)CCC(=O)N3CCN(c4cccc(C)c4)C(C)C3)ccc21 (stereo not given)
  A: 0% | B: -5% | C: 21µM* | D: -1% | E: -14% | F: -16%
N#Cc1ccccc1S(=O)(=O)N1CCN(c2nc(-c3ccccc3)nc3ccccc23)CC1
  A: x | B: x | C: x | D: x | E: -7% | F: x
Cc1nc(N2CCN(S(=O)(=O)c3ccccc3C#N)CC2)c2c(-c3ccccc3)csc2n1
  A: -2% | B: -10% | C: 12µM* | D: x | E: -3% | F: 3%
O=C1C2C3C=CC(C3)C2C(=O)N1CCCCCCN1C(=O)C2C3C=CC(C3)C2C1=O (stereo not given)
  A: 0% | B: 0% | C: u | D: -17% | E: -2% | F: 2%
O=C1C=CC(=O)N1CCCCCCN1C(=O)C=CC1=O
  A: 4% | B: -2% | C: 23µM* | D: -69% | E: -3% | F: u
CCN(C(=O)Cn1c(=O)n(Cc2ccccc2)c(=O)c2c1c1cc(OC)ccc1n2C)c1ccccc1
  A: x | B: x | C: x | D: x | E: -6% | F: x
Cc1cn2c(=O)cc(COc3cccc(NC(=O)c4ccc(C(C)(C)C)cc4)c3)nc2s1
  A: x | B: x | C: x | D: x | E: 10% | F: x
CCN1/C(=C/c2ccc3cccc(C)c3[n+]2CC)Sc2ccccc21
  A: 5% | B: 52µM* | C: -1% | D: -77% | E: -10% | F: 1%
Nc1nc(SCC(=O)Nc2cccc(C(F)(F)F)c2)n[nH]1
  A: x | B: x | C: x | D: x | E: -7% | F: x
CCOC(=O)c1c(NC(C)=O)sc2c1CCN(Cc1ccccc1)C2
  A: u | B: u | C: 3% | D: -7% | E: i | F: -2%
CCOC(=O)c1c(NC(C)=O)sc2c1CCC(C=O)=C2Sc1ccccc1
  A: 15µM* | B: u | C: u | D: 13% | E: x | F: 2%
COc1cc2c(cc1[N+](=O)[O-])-c1ccc([N+](=O)[O-])cc1C2=NO
  A: x | B: x | C: x | D: x | E: -9% | F: x
Cc1c([N+](=O)[O-])c(C/C=N/O)nn1C
  A: -2% | B: 0% | C: -7% | D: -6% | E: -6% | F: 0%
C=CC[C@]12CCc3ccccc3C1N(c1ccc(C(=O)OCC)cc1)C2=O (stereo not given in full)
  A: 16% | B: 0% | C: 7% | D: x | E: 4% | F: 3%
COc1ccc(C2c3ccc(O)cc3Oc3ncn4nc(-c5ccccn5)nc4c32)cc1 (stereo not given)
  A: u | B: u | C: u | D: 1% | E: i | F: 0%
COc1ccc(C2c3ccc(O)cc3Oc3ncn4nc(-c5ccccn5)nc4c32)cc1OC (stereo not given)
  A: u | B: u | C: 21µM* | D: 13% | E: -10% | F: 1%

Screening results from PubChem.
